This is a selection; strong and weak results do not stand in their true shares. Results filed as inconclusive are left out. Calls of active or inactive are those of the source. The call rests on the fitted dose curve; in most records, active means well fitted inhibition curve with a large enough effect; inconclusive means small, poorly fitted or top-dose-only effect, or effect the other way; inactive means flat fitted curve, though single readings scatter.
On the % scale 0 is the no-effect control and ±100 the full control effect.

Protein sequences, listed by entry. Tags and fused reporters are not part of them.
UniProt A8B2U2, whole entry: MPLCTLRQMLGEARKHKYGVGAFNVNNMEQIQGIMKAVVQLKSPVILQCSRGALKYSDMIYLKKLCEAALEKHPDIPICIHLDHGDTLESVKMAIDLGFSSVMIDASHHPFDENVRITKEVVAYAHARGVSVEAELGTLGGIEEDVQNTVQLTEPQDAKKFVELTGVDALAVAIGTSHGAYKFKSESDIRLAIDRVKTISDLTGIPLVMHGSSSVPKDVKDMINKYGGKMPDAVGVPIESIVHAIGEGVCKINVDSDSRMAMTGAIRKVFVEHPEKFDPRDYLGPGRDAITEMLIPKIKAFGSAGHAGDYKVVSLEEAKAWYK

The assay concerns the target Fructose-bisphosphate aldolase (Giardia intestinalis (strain ATCC 50803 / WB clone C6)) (UniProt A8B2U2). Kind of assay: qHTS Assay for Inhibitors of Fructose-1,6-bisphosphate Aldolase from Giardia Lamblia. Further: nearly all actives have a fitted effect of over 55% in size. The following applies: purified Giardia FBPA; at 59.6 µM (top of the series).
Consider `CN(CCCl)CCCl`, for which the activity, negative = inhibition is inactive: -0.755%.
